Laboratory results from patent US11986532B2 (Arvinas Operations, Inc., priority 2021, dated 2024).

Target: BCL6 (Homo sapiens, UniProt P41182)
Assay: Immunofluorescence protocol for high content imaging of BCL6 (degradation) in T47D cells, 3 days compound treatment
Conditions: for DC50: read-out: Mean DC50 (nM)* category
Experimental: Immunofluorescence Protocol for High Content Imaging of BCL6
T47D cells were seeded in 100 μl volume of RPMI1640-10% FBS in a 96-well black/clear bottom plates for adherent lines (Corning #3904).
Day 1. T47D breast cancer epithelial cells were seeded at a density so that confluence is ˜70-90% at endpoint. Cells were seeded at 7K/0.1 ml/well the morning prior to the addition of exemplary bifunctional degradation compounds.
Day 2. Prepare an 11 point 3-fold serial dilution of exemplary bifunctional compound in DMSO and aliquot an appropriate volume to cell growth media to generate a 2× final concentration of exemplary bifunctional compound. Add an equal volume (0.1 ml) of 2× exemplary bifunctional compound/media mix to previously plated cells, for a final top concentration in aqueous cell growth media of 0.1 or 1 μM. Incubate for 3 days at 37° C., 5% CO2.
Day 5 Immunofluorescence. Discard cell media. Wash wells with 200 μl of room temperature phosphate-buffered saline (PBS). Prepared 4% paraformaldehyde (PFA) from 16% PFA (Electron Microscopy Sciences #15710) using 1×PBS. Fifty μl of 4% PF was added to each well and incubate for 15 minutes at room temperature to fix the cells. The PFA was aspirated and the cells washed twice with PBS (200 μl)).
Prepared 0.1% Triton X-100 in PBS using 10% triton X-100 stock. The cells were permeabilized by adding 100 ul of the 0.1% Triton X-100 in PBS to each well to permeabilize cells and incubating at room temperature for 15 minutes. Cells were washed twice with PBS.
Prepared 3% BSA/PBS (from Thermofisher #37515 Blocker BSA in TBS, 10%), and 100 ul was added to each well. The cells were incubated for at least 1 hour at room temperature.
Prepared 1% BSA/PBS using Blocker BSA/PBS, and the 3% BSA/PBS removed from the wells.
For no primary antibody controls, 50 μl 1% BSA/PBS was added.
Primary antibody (BCL6 Rb Ab, CST-14895, Cell Signaling) was diluted 1:300 in 1% BSA/PBS using Blocker BSA/PBS.
Fifty μl of primary antibody added to all remaining wells (i.e., all wells other than the primary antibody controls) and the cells were incubated overnight at 4° C. with slow orbital movement.
Day 6. Contents of the wells was removed and the cells washed four times with 200 ul PBS. 1% BSA/PBS was prepared using Blocker BSA in PBS.
Diluted secondary antibody goat anti-Rb IgG Alexa-488 1:1000, and cell mask-Alexa-647 1:3000 in 1% BSA/PBS in the same mix. Add 50 μl to each well and incubate at room temperature for 1 hour in the dark.
Cells were washed three times with 200 ul PBS, and then incubated for 10 minutes with 100 ul Hoechst dye at 1 μg/mL (20 mM stock) to stain cell nuclei. […]
Plates were equilibrated to room temperature prior to reading. […]

| Compound | Mean Dmax (%)** category | DC50 |
| --- | --- | --- |
| CCOc1c(N2CC3(CCC(OC4CCN(c5ncc(Cl)c(Nc6ccc7c(c6)cc(OCC(=O)NC)c(=O)n7C(C)C)n5)CC4)CC3)C2)ccc2c1CN(C1CCC(=O)NC1=O)C2=O (stereo not shown) | B (50 <= B < 70) | < 10 nM |
| CNC(=O)COc1cc2cc(Nc3nc(N4CCC(O[C@H]5C[C@H](N6C7CCC6CN(c6ccc8c(c6)CN(C6CCC(=O)NC6=O)C8=O)C7)C5)CC4)ncc3Cl)ccc2n(C(C)C)c1=O (stereo partly shown) | B (50 <= B < 70) | < 10 nM |
